Laboratory results: patent publication US20140271644A1, “COMBINATION/ADJUVANT THERAPY FOR WT-1-POSITIVE DISEASE” (Memorial Sloan-Kettering Cancer Center, priority 2013, published 2014)

Cc1nc(Nc2ncc(C(=O)Nc3c(C)cccc3Cl)s2)cc(N2CCN(CCO)CC2)n1 [dasatinib]
Clinical condition of mice and deaths (after dasatinib dose was decreased to 20 mg/kg): continued to be in poor health, with 1 death | Death in combination group (fifth mouse of the dasatinib and ESK combination group): died from dasatinib toxicity on day 8 of therapy
